# Values quoted from earlier work in patent US20160271139A1, “METHOD FOR NON-TOXIC TREATMENT FOR DRUG WITHDRAWAL” (DEMERX, INC., priority 2013, published 2016).
# Conditions: higher doses; cited from earlier work
substance,measurement,value
ibogaine,Hallucinations,caused hallucinations
